Data as given in article PMC11310375 (EJNMMI Radiopharmacy and Chemistry, 2024).

Test system: MCF-7 cells
Experiment: Caspase activity assay with fluorogenic substrate Ac-DEVD-AMC in cell lysates
Type: cell-based, human
Conditions: MCF-7 cells treated with STS

## CN[C@@H]1C[C@H]2O[C@@](C)([C@@H]1OC)n1c3ccccc3c3c4c(c5c6ccccc6n2c5c31)C(=O)NC4 [STS, staurosporine]
  AMC liberation (caspase activity): 253 ± 56 pmol AMC
